Biological target: T1, gastrin releasing peptide receptor (GRP-R), human (human, UniProt P30550 1-384)
T1 construct: whole, on cells; also called GRP receptor; GRP-preferring receptor
Test: 125I-BBN competition, PC3 cells

Chains of the proteins cited; added tags and fusions are not shown. Lines headed by an entry give the natural chain unless they say otherwise; changes in a name come on top.
UniProt P30550: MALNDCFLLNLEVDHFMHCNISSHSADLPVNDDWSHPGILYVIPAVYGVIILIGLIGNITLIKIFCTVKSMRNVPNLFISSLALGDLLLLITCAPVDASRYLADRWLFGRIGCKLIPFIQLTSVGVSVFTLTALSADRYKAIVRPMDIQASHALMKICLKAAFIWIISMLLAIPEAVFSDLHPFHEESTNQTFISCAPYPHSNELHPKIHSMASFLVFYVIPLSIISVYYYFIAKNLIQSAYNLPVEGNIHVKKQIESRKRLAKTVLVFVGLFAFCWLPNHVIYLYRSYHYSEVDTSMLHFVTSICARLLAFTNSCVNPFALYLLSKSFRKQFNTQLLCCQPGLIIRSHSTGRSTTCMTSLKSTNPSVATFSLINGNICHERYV

B1: DO3A-monoamide-G-4-aminobenzoic acid-(D)-Phe-QWAVGHL-NH-Pentyl (peptide)
peptide: FQWAVGHL
modifications: N-terminus: DO3A-monoamide-Gly-4-aminobenzoic acid; residue 1 is D-Phe; C-terminal pentylamide (NH-Pentyl)
notes: also called L219
**Q.** With B1 as the binder, how does the IC50 read?
**A.** Its IC50 is 75 nM.

Reference: patent publication US20090175786A1 (published 2009)
